The source of these data is patent EP0076669A1, “Novel 3-phenyl-1-indanamines, pharmaceutical compositions and methods of preparation” (KEFALAS A/S, priority 1981, dated 1983).

By UniProt entry, the sequences of proteins in these tests, tags left out. Residues count along the entry.
UniProt P31652, whole entry: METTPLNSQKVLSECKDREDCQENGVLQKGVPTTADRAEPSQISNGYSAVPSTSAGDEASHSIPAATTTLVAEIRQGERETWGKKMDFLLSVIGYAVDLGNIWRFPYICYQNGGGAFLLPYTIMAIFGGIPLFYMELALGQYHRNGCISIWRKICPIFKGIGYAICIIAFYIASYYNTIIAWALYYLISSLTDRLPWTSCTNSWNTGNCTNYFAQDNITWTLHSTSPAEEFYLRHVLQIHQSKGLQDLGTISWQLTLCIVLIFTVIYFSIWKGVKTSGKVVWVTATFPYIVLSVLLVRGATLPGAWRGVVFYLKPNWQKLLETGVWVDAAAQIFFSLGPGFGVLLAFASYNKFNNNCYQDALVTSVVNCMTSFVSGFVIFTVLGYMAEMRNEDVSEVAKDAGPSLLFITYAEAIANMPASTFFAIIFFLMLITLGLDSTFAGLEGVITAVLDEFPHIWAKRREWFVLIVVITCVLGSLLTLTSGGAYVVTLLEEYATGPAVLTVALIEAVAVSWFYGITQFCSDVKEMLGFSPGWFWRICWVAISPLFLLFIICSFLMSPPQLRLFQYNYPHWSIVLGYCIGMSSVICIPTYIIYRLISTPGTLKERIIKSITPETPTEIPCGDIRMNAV
UniProt P23977, whole entry: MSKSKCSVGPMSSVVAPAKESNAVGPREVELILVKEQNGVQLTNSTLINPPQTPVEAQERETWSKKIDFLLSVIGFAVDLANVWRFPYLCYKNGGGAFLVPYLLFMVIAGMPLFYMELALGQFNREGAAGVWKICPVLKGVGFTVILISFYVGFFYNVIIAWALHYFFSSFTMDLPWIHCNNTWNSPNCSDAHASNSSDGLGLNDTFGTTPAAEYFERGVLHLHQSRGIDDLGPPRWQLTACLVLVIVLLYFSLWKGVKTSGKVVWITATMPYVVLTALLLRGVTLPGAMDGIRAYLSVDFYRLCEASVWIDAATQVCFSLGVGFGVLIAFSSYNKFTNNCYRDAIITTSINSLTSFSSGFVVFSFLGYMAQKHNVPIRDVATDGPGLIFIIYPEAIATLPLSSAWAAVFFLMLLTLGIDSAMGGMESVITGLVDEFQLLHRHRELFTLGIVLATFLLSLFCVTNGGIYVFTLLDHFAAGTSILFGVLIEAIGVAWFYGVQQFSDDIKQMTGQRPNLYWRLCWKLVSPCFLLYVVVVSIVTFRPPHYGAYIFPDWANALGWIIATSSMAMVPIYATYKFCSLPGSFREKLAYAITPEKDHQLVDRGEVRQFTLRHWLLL
UniProt Q63380, 1-617: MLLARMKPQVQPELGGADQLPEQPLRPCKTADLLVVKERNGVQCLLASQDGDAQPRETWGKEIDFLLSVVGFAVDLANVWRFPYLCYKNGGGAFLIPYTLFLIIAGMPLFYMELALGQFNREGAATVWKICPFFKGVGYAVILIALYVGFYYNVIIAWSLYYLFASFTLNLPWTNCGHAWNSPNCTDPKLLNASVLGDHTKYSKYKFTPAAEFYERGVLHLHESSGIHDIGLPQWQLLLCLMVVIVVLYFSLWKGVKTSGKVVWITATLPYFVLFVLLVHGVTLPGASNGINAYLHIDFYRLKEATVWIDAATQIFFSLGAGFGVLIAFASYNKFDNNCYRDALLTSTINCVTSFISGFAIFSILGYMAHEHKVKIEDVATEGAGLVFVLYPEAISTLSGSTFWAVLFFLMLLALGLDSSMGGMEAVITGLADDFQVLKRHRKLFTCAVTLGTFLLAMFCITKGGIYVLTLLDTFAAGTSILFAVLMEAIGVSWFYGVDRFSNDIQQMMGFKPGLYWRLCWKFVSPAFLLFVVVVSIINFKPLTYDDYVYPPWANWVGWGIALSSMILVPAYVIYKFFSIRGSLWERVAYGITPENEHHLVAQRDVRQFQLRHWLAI

Assay [1] concerns the target ^3H-5-HT uptake in synaptosomes (Rattus norvegicus, UniProt P31652). The assay can be described thus: Inhibition of 3H-5-HT uptake in synaptosomes in vitro. In kind it is biochemical, Rats. To be noted: read-out: Uptake Inhibition IC50 5-HT; rat brain synaptosomes, 3H-5-HT 10 nM; tested form: HCl.
The target in assay [2] is ^3H-DA uptake in striatal synaptosomes (Rattus norvegicus, UniProt P23977).
In assay [3] the test system is tetrabenazine induced ptosis. Nature of the assay: Tetrabenazine ptosis antagonism. In kind it is in vivo. To be noted: i.p., mice, tetrabenazine 40 mg/kg i.p. 30 min after test substance. The method, then:
For insoluble substances the doses 0, 1/8, 1/32 and 1/128 of "i.^p. LD50" are used. 3 mice are used for each dose level. Thirty minutes after administration of test substance, tetrabenazine, 40 mg/kg, is injected i.p. Ptosis is evaluated 30 minutes after administration of tetrabenazine, the following rating scale being used: 0 = normal eyes, 1=1/4 closed eyes, 2 = 1/2 closed eyes, 3 = 3/4 closed eyes and 4 = completely closed eyes. Ptosis is evaluated 30 seconds after tilting the cage 3 times. The tilting is carried out in such a way that the animals slide along the floor of the cage.
The results are recorded as % inhibition of ptotic score calculated on the basis of the score of the control group. If ptotic score for the control group is < 10 the test is rejected and another is performed. The registration can also be done as an on line procedure.

Assay [4] concerns the target ^3H-1-NA uptake in synaptosomes (Rattus norvegicus, UniProt Q63380). Nature of the assay: Inhibition of 3H-1-NA uptake in synaptosomes in vitro. Type of assay: biochemical, Rats. Conditions: read-out: Uptake Inhibition IC50 NA; rat occipital cortex synaptosomes, 3H-1-NA 10 nM; tested form: HCl.
[5] abbreviates: read-out: Uptake Inhibition IC50 DA, 3H-DA 12.5 nM, tested form: HCl.

Like-named read-outs stand apart in the source and are kept apart here.

For the compound `CCCN(CCC)[C@H]1C[C@@H](c2ccc(F)cc2)c2ccc(F)cc21` (relative stereo), the IC50 in assay [1] turned out to be 6700 nM; in assay [2] (setting [5]), 840 nM. Further, the “Tetrabenazine ptosis, ED50” value in assay [3] (tested form: HCl) is recorded as >109 /u mol/kg.
Regarding `CCCN(CCC)[C@H]1C[C@H](c2ccc(F)cc2)c2ccc(F)cc21` (relative stereo), the IC50 in assay [1] was 5400 nM; in assay [2] (setting [5]), 300 nM; in assay [4], 860 nM. Besides, the “Tetrabenazine ptosis, ED50” value in assay [3] (tested form: HCl) is >109 /u mol/kg.
As to `CCN(CC)[C@H]1C[C@@H](c2ccc(F)cc2)c2ccc(C)cc21` (relative stereo), the IC50 in assay [2] (read-out: Uptake Inhibition IC50 DA, 3H-DA 12.5 nM, tested form: HCl hydrate) is 470 nM. Further, the “Tetrabenazine ptosis, ED50” value in assay [3] (tested form: HCl hydrate) was >114 /u mol/kg.

Usually IC50 stands for the concentration that inhibits the measured activity by half.
